Target: T1, IDH2-R140Q (Homo sapiens, UniProt P48735, R140Q)
T1 construct: expressed in transfected cells
T1 sequence (P48735 40-452 R140Q): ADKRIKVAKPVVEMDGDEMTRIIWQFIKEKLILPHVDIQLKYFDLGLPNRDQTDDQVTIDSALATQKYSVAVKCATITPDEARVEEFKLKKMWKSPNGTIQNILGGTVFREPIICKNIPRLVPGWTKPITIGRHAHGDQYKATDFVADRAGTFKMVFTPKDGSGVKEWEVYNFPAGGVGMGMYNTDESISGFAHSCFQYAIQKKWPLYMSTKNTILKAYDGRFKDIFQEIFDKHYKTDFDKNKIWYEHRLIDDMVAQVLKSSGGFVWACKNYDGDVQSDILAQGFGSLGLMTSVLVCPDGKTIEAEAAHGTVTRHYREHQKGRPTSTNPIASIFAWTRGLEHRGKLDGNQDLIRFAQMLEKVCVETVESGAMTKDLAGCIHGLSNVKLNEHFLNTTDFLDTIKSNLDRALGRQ
Assay: Fluorescent determination of IDH2-R140Q cell activity (2-HG in U87MGR140Q cells)
Assay type: cell-based
Details: IC50 (2-HG inhibition)
Description: Enzyme reaction solution: 1 mM nicotinamide adenine dinucleotide (NAD), 0.6 ng/μL D-2-hydroxyglutarate dehydrogenase (D2HGDH), 0.8 U/mL lipoamidase dehydrogenase (Diaphorase) and 60 μM Resazurin in 40 mM Tris.HCl pH 8.8 assay buffer.
Standard curve stock solution: The standard of 2-HG sodium salt was serially diluted in serum-free MEM medium to make a standard curve stock solution.
100 μL of U87MGR140Q cells were seeded at a density of 6×10^4/mL per well in a 96-well plate a.
From each well of 96-well plate a, 50 μL of the culture supernatant was transferred to the corresponding well of 96-well plate b; at the same time, 50 μL of standard curve stocking solution was added to other wells of 96-well plate b. Then 10 μl of 360 mM hydrochloric acid was added to all the wells. […]
A standard curve of the fluorescence value vs. the corresponding 2-HG concentration was made, and the 2-HG concentration corresponding to each concentration point of the compound was calculated, then the inhibition ratio was calculated, and the data was analyzed using XLfit5 (ID Business Solutions Limited) software to obtain the IC50 value.
The inhibition ratio was calculated as follows: Inhibition Ratio (IH %)=(1-2-HG concentration of test compound treated cells/2-HG concentration of control cells)×100%.

`C[C@@H](Nc1nc(NC2CC(F)(F)C2)nc(C2=CC(O)CCC2)n1)C(F)(F)F` (stereo partly shown) [Compound 153] showed an IC50 of 99 nM.

Reference: patent US12234211B2, “Cycloolefin substituted heteroaromatic compounds and their use” (HUTCHISON MEDIPHARMA LIMITED, priority 2017, dated 2025)
